In patent US20230302032A1, “ANTIBACTERIAL COMPOSITIONS AND METHODS FOR FABRICATING THEREOF” (Harrow IP LLC, priority 2020, published 2023):

Experiment: HPLC potency and stability of stored antibiotic solutions;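 further: stored antibiotic compositions assayed by HPLC for remaining potency, USP acceptance requires at least 90% of nominal concentration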
Details: Vancomycin alone, 5.0 % aqueous solution, stored in a dark place at room temperature

Measured: Stability result, % (HPLC potency)

Vancomycin
102%: Day 120 | Day 150 | Day 180
